# From patent US20090048155A1 (priority 2007, published 2009)
# Test: Pharmacokinetics of L-97-1 following i.v. administration
# Conditions: rats
# Procedure: Treatment is initiated at either 12 or 24 hours post-infection. L-97-1 is administered as a continuous i.v. infusion for 8 hours/day for up to 72 hours, depending upon time of sacrifice and necropsy. Based on pharmacokinetic data following i.v. administration, the plasma half life of L-97-1 in rats is 30-60 minutes. L-97-1 will be given as an i.v treatment to obtain adequate plasma levels. Ciprofloxacin is administered b.i.d. by intravenous injection for up to 72 hours, depending upon time of sacrifice and necropsy, as set forth in Table 1.
smiles,measurement,value
CCCn1c(=O)c2c(nc(Cc3ccccc3)n2CCN(CC)CCO)n(CCc2ccc(N)cc2)c1=O,plasma half life,30 to 60 min

# This is a selection: effects in other tests are not listed, and their absence says nothing.
